One data set addresses CYP3A4 (Homo sapiens, UniProt P08684).
A further data set addresses CYP2B10 (Mus musculus, UniProt P12791).

Protein sequences, listed by entry. Tags and fused reporters are not part of them. Lines headed by an entry give the natural chain unless they say otherwise; changes in a name come on top.
UniProt P08684, whole entry: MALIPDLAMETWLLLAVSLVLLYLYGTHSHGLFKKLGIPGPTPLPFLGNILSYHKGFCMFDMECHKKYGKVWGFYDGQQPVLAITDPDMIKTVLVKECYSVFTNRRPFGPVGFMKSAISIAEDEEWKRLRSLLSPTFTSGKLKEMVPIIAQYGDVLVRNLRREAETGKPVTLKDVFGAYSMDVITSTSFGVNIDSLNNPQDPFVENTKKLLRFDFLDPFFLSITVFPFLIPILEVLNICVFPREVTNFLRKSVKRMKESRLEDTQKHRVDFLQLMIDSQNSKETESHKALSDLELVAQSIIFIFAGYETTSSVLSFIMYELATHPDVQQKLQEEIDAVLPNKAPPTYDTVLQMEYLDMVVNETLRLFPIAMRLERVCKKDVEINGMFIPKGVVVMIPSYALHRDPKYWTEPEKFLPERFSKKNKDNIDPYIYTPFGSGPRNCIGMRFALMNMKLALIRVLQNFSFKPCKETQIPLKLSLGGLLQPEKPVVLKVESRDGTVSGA
UniProt P12791: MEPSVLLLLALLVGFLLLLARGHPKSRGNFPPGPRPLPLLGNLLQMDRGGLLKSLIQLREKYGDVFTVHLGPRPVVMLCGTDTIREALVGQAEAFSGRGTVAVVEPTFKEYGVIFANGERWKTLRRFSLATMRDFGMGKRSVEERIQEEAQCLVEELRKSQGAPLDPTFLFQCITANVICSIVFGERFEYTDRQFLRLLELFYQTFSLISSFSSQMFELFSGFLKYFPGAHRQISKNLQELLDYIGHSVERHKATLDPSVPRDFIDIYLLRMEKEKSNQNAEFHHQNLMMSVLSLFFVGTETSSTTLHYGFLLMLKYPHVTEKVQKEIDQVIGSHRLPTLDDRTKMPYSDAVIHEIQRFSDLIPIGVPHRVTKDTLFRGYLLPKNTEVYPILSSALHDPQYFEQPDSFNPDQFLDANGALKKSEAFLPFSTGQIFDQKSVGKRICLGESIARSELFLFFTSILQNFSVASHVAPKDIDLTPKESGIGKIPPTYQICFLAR

Mercury: at CYP3A4, the “Limits of detection CYP3A4” value came out at 61.9 ng/mL. The “Limits of detection CYP2B10” value on CYP2B10 was found to be 31.7 ng/mL.

The values above are taken from patent publication US20240060949A1, “BIOSYSTEMS TO DETECT CHEMICAL CONTAMINANTS” (priority 2020, published 2024).
